Source: ChEMBL document CHEMBL4610124, “Novel Thienopyrimidine Inhibitors of Leishmania N-Myristoyltransferase with On-Target Activity in Intracellular Amastigotes” (J Med Chem, 2020)

Test system: Leishmania donovani
Assay: Inhibition of NMT in Leishmania donovani MHOM/ET/67/HU3 intracellular amastigotes assessed as reduction in protein myristoylation measured after 12 hrs in presence of YnMyr by Western blot analysis based tagging assay
Format: cell-based

SMILES	inhibition
CN1CCC(N(C)c2nc(N(C)CCC#N)c3sccc3n2)CC1	Dose-dependent effect
CN1CCC(N(C)c2nc(N(C)CCC#N)c3ccccc3n2)C1 (configuration not stated)	Dose-dependent effect
